The source of these data is ChEMBL document CHEMBL1133167, “Synthesis and opioid receptor affinity of morphinan and benzomorphan derivatives: mixed kappa agonists and mu agonists/antagonists as potential pharmacotherapeutics for cocaine dependence” (J Med Chem, 2000).

Sequences of proteins named here, by UniProt entry; tags and fusion partners are left off.
UniProt P97266, whole entry: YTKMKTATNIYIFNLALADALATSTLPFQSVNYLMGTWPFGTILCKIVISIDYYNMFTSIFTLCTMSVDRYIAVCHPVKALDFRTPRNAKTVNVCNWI

For this assay, the target named is Mu-type opioid receptor (Cavia porcellus, UniProt P97266). As to the kind of experiment: Binding affinity towards Opioid receptor mu 1 by displacing the radioligand [3H]DAMGO from guinea pig brain membrane. An outline of the steps:
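Guinea pig brain membranes (homogenised, preincubated 37 °C 30 min, washed), 500 µg protein, with 12 concentrations of compound in 50 mM Tris-HCl pH 7.5 at 25 °C for 60 min. Nonspecific binding defined with 1 µM naloxone. Glass-fibre filtration, with PEI-soaked filters for kappa. IC50 by log-probit fit; three experiments in triplicate, mean ± SEM.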

Molecules are shown by their SMILES. pKi: −log10 of the molar value.

`Oc1ccc2c(c1)[C@@]13CCCC[C@H]1[C@@H](C2)N(CC1CC1)CC3` [CYCLORPHAN] showed a pKi of 10.04.

In general, pKi refers to −log10 of the Ki, conventionally taken in molar units. Read a high pKi as a small Ki.
